Test results taken from US20030170893A1, “NANOCAPSULE ENCAPSULATION SYSTEM AND METHOD” (Genesegues, Inc., priority 2000, published 2003).

System: Rt-1 fibroblast cultures
Conditions: rat, 8 hr, 1 μg/ml

Question: `COc1cc([C@@H]2c3cc4c(cc3[C@@H](O[C@@H]3O[C@@H]5CO[C@@H](C)O[C@H]5[C@H](O)[C@H]3O)[C@H]3COC(=O)[C@H]23)OCO4)cc(OC)c1O` [etoposide] was tested. Which “Fragmentation Index, cytotoxicity control” value did it give?
Answer: The value was “hr): 25 ± 10%) (Pei-”.
